# Antibody variant affinities, Ab-14 heavy chain, assay 1

The measurements come from Engelhart et al. 2022 (doi:10.1038/s41597-022-01779-4) through the FLAb antibody collection.

Target peptide (SARS-CoV-2 spike, HR2 region): PDVDLGDISGINAS

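The parent was found by panning a naive human phage display library on the peptide. Variants in AAYL49 differ from the parent at up to three CDR positions; double and triple changes were sampled at random. The assay is AlphaSeq: two haploid yeast populations carry antibody and antigen on their surface. The frequency of each diploid, read from paired DNA barcodes, reflects how well the two displayed proteins bind. Read counts were normalised to the haploid input and turned into Kd by a linear fit to BCL2-family pairs of known affinity, for each replicate. The assay was run in three technical replicates.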

Ab-14 is the parent antibody, in scFv form: VH, then three GGGGS repeats, then VL. The light chain is unchanged in all variants.
VH: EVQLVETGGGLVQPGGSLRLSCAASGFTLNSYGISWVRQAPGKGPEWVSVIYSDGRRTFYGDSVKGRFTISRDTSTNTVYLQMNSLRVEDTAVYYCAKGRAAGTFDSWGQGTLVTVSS
VL: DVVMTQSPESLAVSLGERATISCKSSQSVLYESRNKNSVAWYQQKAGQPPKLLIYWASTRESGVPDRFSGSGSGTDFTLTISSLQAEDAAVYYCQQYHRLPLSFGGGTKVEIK

Positions count from residue 1 of the parent VH; R100H puts H in place of R. The read-out is the apparent dissociation constant on a log10 scale (nM): the lower, the stronger. The mean shown is taken over the replicates in which the pair was detected. "nd" means that the variant was in the library but no mating with the target was seen in any replicate; the authors take this as a sign of poor binding, and no number exists. Parent in this assay: reference entry 0.65, copy in this library 4.11 (one replicate of three). Empty control strains, which show no peptide, gave a signal in 15% of pairings with library AAYL49; the median was 4.06 and 95% of these signals were weaker than 2.83. No background was subtracted.

changes	mean log10 Kd (nM)	detected
R100H+A101S+T104W	1.72	3/3
Y52S+D54Q+S63E	nd	0/3
R57Y+S63D+G103D	nd	0/3
G26N+G103N+D106V	nd	0/3
G61W+A101N+G103N	3.84	2/3
F59R+S63I+K65G	4.22	2/3
Y32N+I51F+R100Q	3.02	1/3
S31E+R100Q+A102K	1.37	3/3
T58F+T104I+F105E	2.70	3/3
G33H+R57D+S107A	4.37	1/3
I34H+V50R+D62A	nd	0/3
L29F+V64A+D106G	2.69	3/3
G26K+L29R+G61W	3.24	1/3
T58M+R100Q+S107F	1.71	3/3
V50T+G99Q	3.54	1/3
I34N+G55H+S63D	3.80	1/3
F27T+S31K+I51D	nd	0/3
N30K+F59S+G103N	nd	0/3
F27W+R57C+D106R	nd	0/3
L29W+T58G+F105E	nd	0/3
G26I+N30S+S63P	3.15	1/3
S53C+D54H+K65V	4.07	2/3
R56T+R57V+R100V	nd	0/3
N30F+G99T+T104I	4.32	1/3
D54V+D62F+T104C	nd	0/3
G33T+Y52L+G61L	nd	0/3
L29E+R57A+V64Q	4.67	2/3
N30D+R56M+F105D	0.07	3/3
R56Q+D62R	2.17	3/3
N30P+I51C+T104K	4.63	1/3
I34G+R56M+G61D	4.81	2/3
R56N+D62H+K65R	2.22	3/3

Second part, the sequence after the result:

mean log10 Kd (nM)	detected	changes
4.50	1/3	S35A+Y60A+K65F
5.61	2/3	V50L+G99F+R100L
nd	0/3	S35E+I51R+T58H
4.29	3/3	S31A+I34P+D54P
nd	0/3	F27T+G33R+I34P
4.06	2/3	D62P+K65N+T104Q
nd	0/3	F59I+G61P+A101P
3.82	1/3	Y32M+D54G+K65Y
nd	0/3	G33L+R100W+T104M
3.94	2/3	R56F+D62W+T104W
3.63	1/3	I34P+A101E+G103E
2.73	1/3	T28F+I34W+R100M
4.30	1/3	F27E+S35D+G99K
nd	0/3	I34K+V50D+R56H
5.27	1/3	V50S+D54N+S107D
nd	0/3	S31L+S35F+K65C
4.84	1/3	F27W+S35R+G99S
nd	0/3	G33C+S63D
3.91	3/3	S63Y+R100C+D106L
3.17	1/3	Y60M+D62A
2.63	2/3	I34V+S53Y+K65C
4.34	3/3	F27P+N30E+Y52D
nd	0/3	S31L+R57D+S107A
nd	0/3	L29W+S31L+V50S
4.54	1/3	Y52L+F59H+G103Q
nd	0/3	Y60W+S63P+A101N
3.53	2/3	I51V+G55C+K65V
4.34	2/3	G33C+D54G+R100Y
5.12	1/3	L29G+G33D+A102N
nd	0/3	G55D+R56E+R57Y
3.73	1/3	Y32H+S63L+A102M
nd	0/3	S35P+G99R+G103F
3.36	1/3	G33N+A102D+S107W

The 10 strongest on average among those seen in every replicate, once more:

{"changes": "N30D+R56M+F105D", "mean log10 Kd (nM)": "0.07", "detected": "3/3"}
{"changes": "S31E+R100Q+A102K", "mean log10 Kd (nM)": "1.37", "detected": "3/3"}
{"changes": "T58M+R100Q+S107F", "mean log10 Kd (nM)": "1.71", "detected": "3/3"}
{"changes": "R100H+A101S+T104W", "mean log10 Kd (nM)": "1.72", "detected": "3/3"}
{"changes": "R56Q+D62R", "mean log10 Kd (nM)": "2.17", "detected": "3/3"}
{"changes": "R56N+D62H+K65R", "mean log10 Kd (nM)": "2.22", "detected": "3/3"}
{"changes": "L29F+V64A+D106G", "mean log10 Kd (nM)": "2.69", "detected": "3/3"}
{"changes": "T58F+T104I+F105E", "mean log10 Kd (nM)": "2.70", "detected": "3/3"}
{"changes": "S63Y+R100C+D106L", "mean log10 Kd (nM)": "3.91", "detected": "3/3"}
{"changes": "S31A+I34P+D54P", "mean log10 Kd (nM)": "4.29", "detected": "3/3"}